Some compounds may have been tested in ways that are not shown here.
System: lettuce seedlings (Lactuca sativa L.)
Assay: Soil bioassay, lettuce root growth
Type: in vivo
Details: no m-tyrosine

Question: ammonium nitrate (NH4NO3) was tested. Which “Root Length of Lettuce Seedlings” value (ammonium nitrate 0.125 mM) did it give?
Answer: 6.79 (0.32) cm

Question: And the “Root Length of Lettuce Seedlings” value (ammonium nitrate 0.25 mM)?
Answer: 7.00 (0.29) cm

Question: And the “Root Length of Lettuce Seedlings” value (ammonium nitrate 0.5 mM)?
Answer: 7.13 (0.35) cm

Question: What about the “Root Length of Lettuce Seedlings” value (ammonium nitrate 1.0 mM) of the same substance?
Answer: 6.88 (0.47) cm

Reference: patent publication US8461085B2, “Bioherbicide from Festuca spp” (Cornell Research Foundation, Inc., priority 2005, dated 2013)
